Patent US7947688B2, “N-[3-(3-substituted-pyrazolo[1,5-a]pyrimidin-7-yl)phenyl]-sulfonamides, and compositions, and methods related thereto” (Ferrer Internacional, S.A., priority 2003, dated 2011)

Legend:
α1-GABAA receptor = α1-GABAA receptor (Rattus norvegicus, UniProt P18508+P62813); experiment: Ligand-binding assay, radiolabeled flumazenil competition, rat cerebellum membranes; conditions: radiolabeled flumazenil 1 nM, Ki from IC50 by Cheng-Prusoff, read-out: Ki, affinity for α1-GABAA receptor
Procedure: (§1) Determination of the affinity of test compounds for α1- and α2-GABAA receptor.
(§2) Male Sprague-Dawley rats weighing 200-250 g at the time of experiment were used. After decapitation of the animal, the cerebellum (tissue that mostly contains α1-GABAA receptor) and spinal cord (tissue that mostly contains α2-GABAA receptor) were removed. The membranes were prepared according to the method by J. Lameh et al. (Prog. Neuro-Psychopharmacol. Biol. Psychiatry, 24, 979-991, 2000). Once the tissues weighed, they were suspended in 50 mM Tris.HCl (pH 7.7), 1:40 (v/v), homogenized and then centrifuged at 20000 g for 10 min at 7° C. The resulting pellet was resuspended under the same conditions and centrifuged again. The pellet was finally resuspended on a minimum volume and kept at −80° C. overnight. On the next day, the process was repeated until the final pellet was resuspended at a ratio of 1:10 (v/v).
(§3) Affinity was determined by competitive tests using radiolabeled flumazenil as ligand. […] The next day the filters were counted using a Packard Mod. […]
(§4) Every concentrations of compound were tested in duplicate and their mean values were used to determine the experimental values of % specific binding versus the concentration of compound. […] Inhibition constants (Ki) were calculated from the IC50 values according to Cheng-Prusoff's formula (Y. Cheng y W. H. Prusoff, Biochem. Pharmacol., 22(23), 3099-3108, 1973).

α2-GABAA receptor = α2-GABAA receptor (Rattus norvegicus, UniProt P18508+P23576); experiment: Ligand-binding assay, radiolabeled flumazenil competition, rat spinal cord membranes; conditions: radiolabeled flumazenil 1 nM, Ki from IC50 by Cheng-Prusoff, read-out: Ki, affinity for α2-GABAA receptor
Procedure: as §1, §2, §3, §4

SMILES: CN(c1cccc(-c2ccnc3c(C(=O)c4cccs4)cnn23)c1)S(C)(=O)=O [Example 3, N-methyl-N-{3-[3-(thiophene-2-carbonyl)-pyrazolo[1,5-a]pyrimidin-7-yl]-phenyl}-methanesulfonamide]
- Ki (α1-GABAA receptor): 7.4 nM
- Ki (α2-GABAA receptor): 36.7 nM
